Read-outs that look alike come from different tables or passages of the source.
Target: human kappa opioid receptor (Homo sapiens, UniProt P41145)
Conditions: Table 1

Amino acid sequences for entries named in this document (tags omitted).
UniProt P41145, whole entry: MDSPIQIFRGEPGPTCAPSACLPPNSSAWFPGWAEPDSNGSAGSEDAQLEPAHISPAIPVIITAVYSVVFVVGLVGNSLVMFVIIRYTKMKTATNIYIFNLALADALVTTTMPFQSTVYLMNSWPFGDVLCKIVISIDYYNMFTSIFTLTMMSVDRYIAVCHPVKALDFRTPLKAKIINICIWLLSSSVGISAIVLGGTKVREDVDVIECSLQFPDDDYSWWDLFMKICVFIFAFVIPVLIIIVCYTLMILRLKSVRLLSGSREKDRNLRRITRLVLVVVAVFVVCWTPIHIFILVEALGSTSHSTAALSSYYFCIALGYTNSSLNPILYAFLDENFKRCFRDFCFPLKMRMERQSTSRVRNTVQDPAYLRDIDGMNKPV

Row | Structure (SMILES) | Ki (human kappa opioid receptor) | Ki (cells printed in μM)
1 | CC(=O)O[C@H]1C[C@@H](C(=O)NCC(=O)OCc2ccccc2)[C@]2(C)CC[C@@H]3C(=O)O[C@H](c4ccoc4)C[C@]3(C)[C@H]2C1=O | 1.45 µM | 
2 | CC(=O)O[C@H]1C[C@@H](C(=O)N[C@H](CO)C(=O)OCc2ccccc2)[C@]2(C)CC[C@H]3C(=O)O[C@H](c4ccoc4)C[C@]3(C)[C@H]2C1=O |  | > 10 µM

Source: US20070213394A1 (priority 2004, published 2007)
